Assay results reported in patent publication EP1994938A1, “New lipoglycodepsipeptide compositions” (priority 2007, dated 2008).

Legend:
[1] = rats, 30 mg/kg i.v. once daily for three days
[2] = iv; cited from earlier work

## ramoplanin
[1]; formulated in 0.9% NaCl
  hemolysis in vivo: detected
[1]; formulated with cyclodextrin (SBE-β-CD:ramoplanin 10 : 1), in comparison to 0.9% NaCl formulation
  short term in vivo toxicity effect: significantly reduced
[2]
  short term in vivo toxic effects: progressive necrotization at the site of injection and hemolysis as revealed by urine discoloration
